Measurements reported in article PMC7656562 (Journal of medicinal chemistry, 2019).
Where “and” joins values, the source holds several entries; their conditions need not be identical. Equal entries are not always repeated. Where two headings read alike, the source gives them in different places.

Chains of the proteins cited; added tags and fusions are not shown.
UniProt P21554, whole entry: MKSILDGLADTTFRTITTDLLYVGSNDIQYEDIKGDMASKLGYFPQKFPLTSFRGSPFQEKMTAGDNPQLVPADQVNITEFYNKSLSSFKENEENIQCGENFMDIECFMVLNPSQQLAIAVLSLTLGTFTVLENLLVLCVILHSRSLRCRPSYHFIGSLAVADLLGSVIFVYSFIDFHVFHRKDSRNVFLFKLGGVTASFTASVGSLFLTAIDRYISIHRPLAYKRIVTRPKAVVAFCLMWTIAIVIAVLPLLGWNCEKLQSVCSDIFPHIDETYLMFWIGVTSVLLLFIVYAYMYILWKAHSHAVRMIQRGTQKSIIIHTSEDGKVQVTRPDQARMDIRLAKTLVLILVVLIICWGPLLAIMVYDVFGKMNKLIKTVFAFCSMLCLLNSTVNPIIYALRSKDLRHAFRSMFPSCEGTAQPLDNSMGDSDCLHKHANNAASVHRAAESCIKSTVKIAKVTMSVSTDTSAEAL

Assays:
hCB1 [1] = biological target: T1, hCB1 (Homo sapiens, UniProt P21554); assay: cell-based
CYP2B6 = conditions: human
[2] = rat, 1 mg/kg PO
CYP3A4 = conditions: human
CYP1A2 = conditions: human
[3] = mouse, 0.3 mg/kg PO
hCB1 [4] = biological target: T1, hCB1; conditions: ratio Ki hCB2/Ki hCB1
hCB1 [5] = biological target: T1, hCB1; assay: biochemical
hCB1 [6] = biological target: T1, hCB1; conditions: calcium mobilization; cited from earlier work
[7] = cited from earlier work

`O=C(NC1CCCC1)NC1CCN(c2ncnc3c2nc(-c2ccccc2Cl)n3-c2ccc(Cl)cc2)CC1` [Compound 19, 1-{1-[8-(2-Chlorophenyl)-9-(4-chlorophenyl)-9H-purin-6-yl]-piperidin-4-yl}-3-cyclopentylurea] gave a Kb (hCB1 [1]) of 25 ± 14 nM.

For `O=C(Nc1ccc(OC(F)F)nc1)NC1CCN(c2ncnc3c2nc(-c2ccccc2Cl)n3-c2ccc(Cl)cc2)CC1` [Compound 38, 3-{1-[8-(2-Chlorophenyl)-9-(4-chlorophenyl)-9H-purin-6-yl]-piperidin-4-yl}-1-[6-(difluoromethoxy)pyridin-3-yl]urea], the “CYP2B6 induction (% of phenobarbital)” value (CYP2B6) was less than 10%, the “plasma Cl” value [2] was 18 mL/h/kg and the “time of brain max. conc.” value [2] was 2 h. The “time of liver max. conc.” value [2] was 4 h, the “CYP3A4 induction (% of rifampicin)” value (CYP3A4) was less than 10% and the “CYP1A2 induction (% of omeprazole)” value (CYP1A2) was less than 1%. For the same compound, the Kb (hCB1 [1]) was 26 ± 9 nM, the “plasma Cl” value [3] was 21 mL/h/kg and the “time of brain max. conc.” value [3] was 4 h. For the same compound, the “time of liver max. conc.” value [3] was 4 h.

For `CC(C)CN(C)C(=O)NC1CCN(c2ncnc3c2nc(-c2ccccc2Cl)n3-c2ccc(Cl)cc2)CC1` [Compound 13, 1-{1-[8-(2-Chlorophenyl)-9-(4-chlorophenyl)-9H-purin-6-yl]-piperidin-4-yl}-3-methyl-3-(2-methylpropyl)urea], the Kb (hCB1 [1]) was 6 ± 2 nM.

With `CC1(NC(=O)NC2CCC(F)(F)CC2)CCN(c2ncnc3c2nc(-c2ccccc2Cl)n3-c2ccc(Cl)cc2)CC1` [Compound 48, 3-{1-[8-(2-Chlorophenyl)-9-(4-chlorophenyl)-9H-purin-6-yl]-4-methylpiperidin-4-yl}-1-(4,4-difluorocyclohexyl)urea] the “Selectivity Ki CB2/CB1” value (hCB1 [4]) was > 550 and >588.

With `CC1(NC(=O)Nc2ccc(OC(F)F)nc2)CCN(c2ncnc3c2nc(-c2ccccc2Cl)n3-c2ccc(Cl)cc2)CC1` [Compound 52, 3-{1-[8-(2-Chlorophenyl)-9-(4-chlorophenyl)-9H-purin-6-yl]-4-methylpiperidin-4-yl}-1-[6-(difluoromethoxy)pyridin-3-yl]urea] the “Selectivity Ki CB2/CB1” value (hCB1 [4]) was greater than 120.

In the case of `COCCN(C)C(=O)NC1CCN(c2ncnc3c2nc(-c2ccccc2Cl)n3-c2ccc(Cl)cc2)CC1` [Compound 15, 1-{1-[8-(2-Chlorophenyl)-9-(4-chlorophenyl)-9H-purin-6-yl]-piperidin-4-yl}-3-(2-methoxyethyl)-3-methylurea], the Kb (hCB1 [1]) is reported as 13 ± 7 nM.

With `O=C(NCC1CCCCC1)NC1CCN(c2ncnc3c2nc(-c2ccccc2Cl)n3-c2ccc(OC(F)F)nc2)CC1` [Compound 43, 3-{1-[8-(2-Chlorophenyl)-9-[6-(difluoromethoxy)pyridin-3-yl]-9H-purin-6-yl]piperidin-4-yl}-1-(cyclohexylmethyl)urea] the Kb (hCB1 [1]) was 100 ± 30 nM.

Work on `O=C(Nc1ccccc1F)NC1CCN(c2ncnc3c2nc(-c2ccccc2Cl)n3-c2ccc(Cl)cc2)CC1` [Compound 32, 3-{1-[8-(2-Chlorophenyl)-9-(4-chlorophenyl)-9H-purin-6-yl]-piperidin-4-yl}-1-(2-fluorophenyl)urea] yielded a Kb (hCB1 [1]) of 58 ± 7 nM.

With `CC1(NC(=O)Nc2ccccc2F)CCN(c2ncnc3c2nc(-c2ccccc2Cl)n3-c2ccc(Cl)cc2)CC1` [Compound 50, 3-{1-[8-(2-Chlorophenyl)-9-(4-chlorophenyl)-9H-purin-6-yl]-4-methylpiperidin-4-yl}-1-(2-fluorophenyl)urea] the “Selectivity Ki CB2/CB1” value (hCB1 [4]) was greater than 2500.

`O=C(NCc1ccccc1F)NC1CCN(c2ncnc3c2nc(-c2ccccc2Cl)n3-c2ccc(Cl)cc2)CC1` [Compound 28, 3-{1-[8-(2-Chlorophenyl)-9-(4-chlorophenyl)-9H-purin-6-yl]-piperidin-4-yl}-1-[(2-fluorophenyl)methyl]urea] gave a Kb (hCB1 [1]) of 71 ± 7 nM and a Ki (hCB1 [5]) of 2 nM.

Work on `O=C(NCc1ccc(F)cc1)NC1CCN(c2ncnc3c2nc(-c2ccccc2Cl)n3-c2ccc(Cl)cc2)CC1` [Compound 29, 3-{1-[8-(2-Chlorophenyl)-9-(4-chlorophenyl)-9H-purin-6-yl]-piperidin-4-yl}-1-[(4-fluorophenyl)methyl]urea] yielded a Kb (hCB1 [1]) of 19 ± 6 nM.

In the case of `O=C(Nc1ccc(F)cc1F)NC1CCN(c2ncnc3c2nc(-c2ccccc2Cl)n3-c2ccc(Cl)cc2)CC1` [Compound 33, 3-{1-[8-(2-Chlorophenyl)-9-(4-chlorophenyl)-9H-purin-6-yl]-piperidin-4-yl}-1-(2,4-difluorophenyl)urea], the “CYP2B6 induction (% of phenobarbital)” value (CYP2B6) is reported as less than 10%, the “CYP1A2 induction (% of omeprazole)” value (CYP1A2) is reported as less than 1% and the “plasma Cl” value [3] is reported as 19 mL/h/kg. The “time of brain max. conc.” value [3] was 2 h and the “time of liver max. conc.” value [3] was 2 h.

For `CCCN(C)C(=O)NC1CCN(c2ncnc3c2nc(-c2ccccc2Cl)n3-c2ccc(Cl)cc2)CC1` [Compound 11, 1-{1-[8-(2-Chlorophenyl)-9-(4-chlorophenyl)-9H-purin-6-yl]-piperidin-4-yl}-3-methyl-3-propylurea], the Kb (hCB1 [1]) was 5 ± 3 nM.

With `CC1(NC(=O)NS(=O)(=O)c2ccccc2F)CCN(c2ncnc3c2nc(-c2ccccc2Cl)n3-c2ccc(Cl)cc2)CC1` [Compound 53, 3-{1-[8-(2-Chlorophenyl)-9-(4-chlorophenyl)-9H-purin-6-yl]-4-methylpiperidin-4-yl}-1-[(2-fluorobenzene)sulfonyl]urea] the “Selectivity Ki CB2/CB1” value (hCB1 [4]) was greater than 80.

Work on `O=C(Nc1ccccc1F)NC1CCN(c2ncnc3c2nc(-c2ccccc2Cl)n3-c2ccc(C(F)(F)F)nc2)CC1` [Compound 45, 3-{1-[8-(2-Chlorophenyl)-9-[6-(trifluoromethyl)pyridin-3-yl]-9H-purin-6-yl]piperidin-4-yl}-1-(2-fluorophenyl)urea] yielded a Kb (hCB1 [1]) of 210 ± 70 nM.

`O=C(NC1CCN(c2ncnc3c2nc(-c2ccccc2Cl)n3-c2ccc(Cl)cc2)CC1)NS(=O)(=O)c1ccccc1F` [Compound 41, 3-{1-[8-(2-Chlorophenyl)-9-(4-chlorophenyl)-9H-purin-6-yl]-piperidin-4-yl}-1-[(2-fluorobenzene)sulfonyl]urea] gave a Kb (hCB1 [1]) of 280 ± 130 nM.

For `CCNC1(C(N)=O)CCN(c2ncnc3c2nc(-c2ccccc2Cl)n3-c2ccc(Cl)cc2)CC1` [Compound 1, otenabant], the “Ke hCB1” value (hCB1 [6]) is given as 0.2 nM and the cLogP [7] is given as 4.4.

For `O=C(Nc1ccccc1F)NC1CCN(c2ncnc3c2nc(-c2ccccc2Cl)n3-c2ccc(OC(F)F)nc2)CC1` [Compound 46, 3-{1-[8-(2-Chlorophenyl)-9-[6-(difluoromethoxy)pyridin-3-yl]-9H-purin-6-yl]piperidin-4-yl}-1-(2-fluorophenyl)urea], the Kb (hCB1 [1]) was 380 ± 140 nM.

Work on `O=C(NCC1CCCC1)NC1CCN(c2ncnc3c2nc(-c2ccccc2Cl)n3-c2ccc(Cl)cc2)CC1` [Compound 24, 3-{1-[8-(2-Chlorophenyl)-9-(4-chlorophenyl)-9H-purin-6-yl]-piperidin-4-yl}-1-(cyclopentylmethyl)urea] yielded a Kb (hCB1 [1]) of 63 ± 37 nM.

Compound `O=C(Nc1ccc(F)cc1)NC1CCN(c2ncnc3c2nc(-c2ccccc2Cl)n3-c2ccc(Cl)cc2)CC1` [Compound 35, 3-{1-[8-(2-Chlorophenyl)-9-(4-chlorophenyl)-9H-purin-6-yl]-piperidin-4-yl}-1-(4-fluorophenyl)urea] has a Kb (hCB1 [1]) of 78 ± 20 nM.
